For assay [1], the target named is T1, Ephrin type-B receptor 4 (Homo sapiens) (UniProt P54760).
T1 sequence (whole entry): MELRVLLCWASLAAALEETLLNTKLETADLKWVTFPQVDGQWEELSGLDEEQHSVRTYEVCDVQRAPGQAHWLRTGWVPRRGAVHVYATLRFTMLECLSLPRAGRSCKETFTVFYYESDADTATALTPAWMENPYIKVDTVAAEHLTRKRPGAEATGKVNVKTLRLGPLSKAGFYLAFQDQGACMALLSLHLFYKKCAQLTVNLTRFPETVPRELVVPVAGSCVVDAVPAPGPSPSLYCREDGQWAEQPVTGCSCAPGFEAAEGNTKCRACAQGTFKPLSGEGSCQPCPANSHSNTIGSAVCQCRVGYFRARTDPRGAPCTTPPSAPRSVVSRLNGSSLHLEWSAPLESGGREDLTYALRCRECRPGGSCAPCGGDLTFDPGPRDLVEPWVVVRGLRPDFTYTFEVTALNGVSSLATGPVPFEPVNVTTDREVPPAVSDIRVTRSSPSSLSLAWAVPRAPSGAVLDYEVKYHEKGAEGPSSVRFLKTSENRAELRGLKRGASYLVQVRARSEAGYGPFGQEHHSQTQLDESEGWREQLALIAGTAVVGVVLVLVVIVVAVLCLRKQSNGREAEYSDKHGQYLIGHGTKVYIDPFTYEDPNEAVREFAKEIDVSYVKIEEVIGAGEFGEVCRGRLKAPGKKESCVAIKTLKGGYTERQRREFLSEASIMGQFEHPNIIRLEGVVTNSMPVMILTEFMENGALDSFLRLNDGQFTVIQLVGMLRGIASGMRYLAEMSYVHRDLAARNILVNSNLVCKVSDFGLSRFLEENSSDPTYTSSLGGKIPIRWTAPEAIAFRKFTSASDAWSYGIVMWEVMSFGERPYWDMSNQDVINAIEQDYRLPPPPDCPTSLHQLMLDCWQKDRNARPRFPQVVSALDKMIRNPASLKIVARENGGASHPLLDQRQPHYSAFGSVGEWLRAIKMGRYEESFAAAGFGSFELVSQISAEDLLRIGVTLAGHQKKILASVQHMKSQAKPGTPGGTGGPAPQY
The experiment in a line: Inhibition of EPHB4 at 1 uM in presence of 10 uM ATP by Select Screen kinase assay relative to untreated control. The procedure, abridged: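 Single-point screen at 1 μM against a panel of 220 purified kinases, run by Invitrogen staff as a SelectScreen profiling service. Read-out is percent inhibition of kinase activity.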

By UniProt entry, the sequences of proteins in these tests, tags left out.
UniProt P35968, whole entry: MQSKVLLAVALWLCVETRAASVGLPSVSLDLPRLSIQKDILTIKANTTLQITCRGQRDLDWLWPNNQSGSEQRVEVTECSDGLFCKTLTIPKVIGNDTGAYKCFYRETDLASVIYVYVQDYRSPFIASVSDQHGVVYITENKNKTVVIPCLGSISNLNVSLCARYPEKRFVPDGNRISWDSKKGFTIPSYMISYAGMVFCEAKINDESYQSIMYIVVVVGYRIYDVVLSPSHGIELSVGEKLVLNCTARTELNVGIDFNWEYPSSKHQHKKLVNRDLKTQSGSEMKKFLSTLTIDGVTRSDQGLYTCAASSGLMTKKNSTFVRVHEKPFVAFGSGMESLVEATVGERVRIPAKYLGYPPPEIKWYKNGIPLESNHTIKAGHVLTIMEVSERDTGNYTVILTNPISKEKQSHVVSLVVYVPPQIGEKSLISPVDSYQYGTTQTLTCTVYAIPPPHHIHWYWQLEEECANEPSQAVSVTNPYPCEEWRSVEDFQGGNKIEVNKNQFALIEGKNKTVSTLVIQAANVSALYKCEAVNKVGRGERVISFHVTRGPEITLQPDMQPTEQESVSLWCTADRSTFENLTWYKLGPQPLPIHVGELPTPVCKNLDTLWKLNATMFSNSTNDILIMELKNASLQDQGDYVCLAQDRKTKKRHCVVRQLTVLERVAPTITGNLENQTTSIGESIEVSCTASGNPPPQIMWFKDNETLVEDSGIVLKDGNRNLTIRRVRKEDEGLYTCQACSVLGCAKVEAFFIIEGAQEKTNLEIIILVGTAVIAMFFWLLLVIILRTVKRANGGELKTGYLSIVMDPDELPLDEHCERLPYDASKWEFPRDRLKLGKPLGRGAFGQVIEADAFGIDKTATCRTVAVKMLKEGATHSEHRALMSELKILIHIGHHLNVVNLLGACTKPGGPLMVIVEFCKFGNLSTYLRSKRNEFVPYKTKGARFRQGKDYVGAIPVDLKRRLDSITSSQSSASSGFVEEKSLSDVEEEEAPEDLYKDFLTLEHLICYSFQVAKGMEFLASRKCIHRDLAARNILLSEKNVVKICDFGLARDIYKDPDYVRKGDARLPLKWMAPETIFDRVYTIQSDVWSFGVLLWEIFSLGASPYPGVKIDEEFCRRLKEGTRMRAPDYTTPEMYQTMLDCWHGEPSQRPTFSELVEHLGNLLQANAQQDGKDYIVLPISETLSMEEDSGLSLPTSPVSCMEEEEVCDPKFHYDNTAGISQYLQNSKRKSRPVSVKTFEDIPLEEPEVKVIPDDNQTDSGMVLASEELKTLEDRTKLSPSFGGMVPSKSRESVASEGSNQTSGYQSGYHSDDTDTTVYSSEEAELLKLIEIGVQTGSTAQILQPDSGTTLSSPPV

For assay [2], the target named is Vascular endothelial growth factor receptor 2 (Homo sapiens) (UniProt P35968). The experiment in a line: Inhibition of KDR at 1 uM in presence of 10 uM ATP by Select Screen kinase assay relative to untreated control. The procedure, abridged:
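Single-concentration profiling at 1 μM against a panel of 220 purified kinases, run as an outsourced SelectScreen kinase profiling service. Activity is expressed as percent inhibition.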

The structures appear in SMILES notation.

With `Cc1n[nH]c2ccc(-c3cncc(OC[C@@H](N)Cc4c[nH]c5ccccc45)c3)cc12`, the inhibition in assay [1] and in assay [2] was 16% in each case.

The values above are taken from ChEMBL document CHEMBL1250448, “Inhibitor hijacking of Akt activation” (Nat Chem Biol, 2009).
